The chains behind the UniProt entries cited, without tags or fusion partners.
UniProt P08908, whole entry: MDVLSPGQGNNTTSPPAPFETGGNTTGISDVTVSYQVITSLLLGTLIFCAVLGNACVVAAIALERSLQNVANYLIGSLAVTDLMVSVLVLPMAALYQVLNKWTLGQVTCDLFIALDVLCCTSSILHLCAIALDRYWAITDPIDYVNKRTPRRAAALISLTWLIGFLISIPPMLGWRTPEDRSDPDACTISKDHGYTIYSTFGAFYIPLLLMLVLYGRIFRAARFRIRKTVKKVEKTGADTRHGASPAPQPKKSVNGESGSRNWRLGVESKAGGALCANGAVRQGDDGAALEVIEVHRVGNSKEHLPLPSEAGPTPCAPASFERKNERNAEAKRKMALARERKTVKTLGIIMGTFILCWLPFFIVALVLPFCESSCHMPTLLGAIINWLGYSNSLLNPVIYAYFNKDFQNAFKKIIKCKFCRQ

In ChEMBL document CHEMBL1155229, “Physical binding pocket induction for affinity prediction” (J Med Chem, 2009):

Biological target: 5-hydroxytryptamine receptor 1A (Homo sapiens, UniProt P08908)
Assay: Binding affinity to 5HT1A receptor

SMILES	Kd [nM]
CCCN1CC[C@H]2c3c(O)cccc3CC[C@H]21	0.1
CCCN1CC[C@@H]2c3c(O)cccc3CC[C@@H]21	3.16
